Literature values, collected in PubChem BioAssay AID977610.

How the values were obtained:
Assay in all cases: PubChem AID 977610
[1] = molecular target: Beta-galactosidase(S796A mutant); settings: PDB protein-ligand complexes, literature Ki; protein: Beta-galactosidase(S796A mutant); PDB entry 3T08
[2] = molecular target: Beta-galactosidase(S796D mutant); settings: PDB protein-ligand complexes, literature Ki; protein: Beta-galactosidase(S796D mutant); PDB entry 3T2P
[3] = molecular target: Beta-galactosidase(S796T mutant); settings: PDB protein-ligand complexes, literature Ki; protein: Beta-galactosidase(S796T mutant); PDB entry 3T0B
Beta-galactosidase [4] = settings: PDB protein-ligand complexes, literature Ki; protein: Beta-galactosidase; PDB entry 3I3D
[5] = molecular target: E. coli (lacZ) beta-galactosidase (H418N); settings: PDB protein-ligand complexes, literature Ki; protein: E. coli (lacZ) beta-galactosidase (H418N); PDB entry 3DYO
[6] = molecular target: E. coli (lacZ) beta-galactosidase (N460D mutant); settings: PDB protein-ligand complexes, literature Ki; protein: E. coli (lacZ) beta-galactosidase (N460D mutant); PDB entry 3VD4
[7] = molecular target: E. coli (lacZ) beta-galactosidase (N460S mutant); settings: PDB protein-ligand complexes, literature Ki; protein: E. coli (lacZ) beta-galactosidase (N460S mutant); PDB entry 3VD9
[8] = molecular target: E. coli (lacZ) beta-galactosidase (N460T mutant); settings: PDB protein-ligand complexes, literature Ki; protein: E. coli (lacZ) beta-galactosidase (N460T mutant); PDB entry 3VDC
beta-galactosidase [9] = settings: PDB protein-ligand complexes, literature Ki; protein: beta-galactosidase; PDB entry 1PX4
1T5A A = settings: PDB protein-ligand complexes, literature Ki; PDB entry 1T5A
[10] = molecular target: phosphoenolpyruvate-protein phosphotransferase; settings: PDB protein-ligand complexes, literature Ki; protein: phosphoenolpyruvate-protein phosphotransferase; PDB entry 2HWG
[11] = molecular target: phosphonopyruvate hydrolase; settings: PDB protein-ligand complexes, literature Ki; protein: phosphonopyruvate hydrolase; PDB entry 2DUA
[12] = molecular target: oligo-peptide binding protein; settings: PDB protein-ligand complexes, literature Ki; protein: oligo-peptide binding protein; PDB entry 2RKM
[13] = molecular target: phosphonoacetaldehyde hydrolase; settings: PDB protein-ligand complexes, literature Ki; protein: phosphonoacetaldehyde hydrolase; PDB entry 1RQL
[14] = molecular target: protein-tyrosine phosphatase, non-receptor type; settings: PDB protein-ligand complexes, literature Ki; protein: protein-tyrosine phosphatase, non-receptor type; PDB entry 1Q1M
[15] = molecular target: fructose-1,6-bisphosphatase 1; settings: PDB protein-ligand complexes, literature Ki; protein: fructose-1,6-bisphosphatase 1; PDB entry 2FHY
ermc' methyltransferase = settings: PDB protein-ligand complexes, literature Ki; protein: ermc' methyltransferase; PDB entry 1QAQ
[16] = molecular target: Renilla-luciferin 2-monooxygenase; settings: PDB protein-ligand complexes, literature Ki; protein: Renilla-luciferin 2-monooxygenase; PDB entry 2PSJ
E201Q 1-FEH IIa = settings: PDB protein-ligand complexes, literature Ki; protein: E201Q 1-FEH IIa; PDB entry 2AEZ
NarGHI = settings: PDB protein-ligand complexes, literature Ki; protein: NarGHI; PDB entry 1Y4Z
[17] = molecular target: Fructose-bisphosphate aldolase A; settings: PDB protein-ligand complexes, literature Ki; protein: Fructose-bisphosphate aldolase A; PDB entry 2OT1
[18] = molecular target: aminolevulinic acid dehydratase; settings: PDB protein-ligand complexes, literature Ki; protein: aminolevulinic acid dehydratase; PDB entry 1YLV
dipeptidyl peptidase 4 = settings: PDB protein-ligand complexes, literature Ki; protein: dipeptidyl peptidase 4; PDB entry 2AJ8
[19] = molecular target: GLUTAMATE CARBOXYPEPTIDASE 2; settings: PDB protein-ligand complexes, literature Ki; protein: GLUTAMATE CARBOXYPEPTIDASE 2; PDB entry 2JBK
[20] = molecular target: Glutamate carboxypeptidase III; settings: PDB protein-ligand complexes, literature Ki; protein: Glutamate carboxypeptidase III; PDB entry 3FEE
[21] = molecular target: Geranylgeranyl pyrophosphate synthetase; settings: PDB protein-ligand complexes, literature Ki; protein: Geranylgeranyl pyrophosphate synthetase; PDB entry 2Q80
[22] = molecular target: triosephosphate isomerase; settings: PDB protein-ligand complexes, literature Ki; protein: triosephosphate isomerase; PDB entry 6TIM
[23] = molecular target: diaminopimelate decarboxylase; settings: PDB protein-ligand complexes, literature Ki; protein: diaminopimelate decarboxylase; PDB entry 1TUF
uracil-dna glycosylase = settings: PDB protein-ligand complexes, literature Ki; protein: uracil-dna glycosylase; PDB entry 1UI0
ribonuclease a = settings: PDB protein-ligand complexes, literature Ki; protein: ribonuclease a; PDB entry 6RSA
[24] = molecular target: hypoxia-inducible factor 1 alpha inhibitor; settings: PDB protein-ligand complexes, literature Ki; protein: hypoxia-inducible factor 1 alpha inhibitor; PDB entry 1YCI

CC(C)S[C@@H]1O[C@H](CO)[C@H](O)[C@H](O)[C@H]1O
Ki [1]: 910 µM | Ki [2]: 250 µM | Ki [3]: 50 µM | Ki (Beta-galactosidase [4]): 10300 µM | Ki [5]: 5000 µM | Ki [6]: 15 µM | Ki [7]: 100 µM | Ki [8]: 12 µM | Ki (beta-galactosidase [9]): 590 µM

O=C(O)C(=O)O
Ki (1T5A A): 24 µM | Ki [10]: 280 µM | Ki [11]: 17 µM

NCCCC[C@H](NC(=O)[C@@H](N)CCCCN)C(=O)O
Ki [12]: 125 µM

C=CS(=O)(=O)O
Ki [13]: 1790 µM

COC(=O)c1c(O)cccc1OC/C=C/c1ccc(F)c(-c2cc(C(=O)O)no2)c1
Ki [14]: 6.9 µM

O=S(=O)(Nc1nc2cc(Cl)ccc2o1)c1cc(Cl)ccc1Cl
Ki [15]: 1.1 µM

Nc1ncnc2c1ncn2[C@@H]1O[C@H](C[C@@H](N)CC[C@H](N)C(=O)O)[C@@H](O)[C@H]1O
Ki (ermc' methyltransferase): 18 µM

O=C(Cc1ccc(O)cc1)Nc1ncc(-c2ccc(O)cc2)nc1Cc1ccccc1
Ki [16]: 0.02 µM

OC[C@H]1O[C@@](CO)(OC[C@@]2(O[C@H]3O[C@H](CO)[C@@H](O)[C@H](O)[C@H]3O)O[C@H](CO)[C@@H](O)[C@@H]2O)[C@@H](O)[C@@H]1O
Ki (E201Q 1-FEH IIa): 3500 µM

Oc1c(Cl)c(Cl)c(Cl)c(Cl)c1Cl
Ki (NarGHI): 0.057 µM

O=C(Nc1ccc(Cl)cc1)c1cc2ccccc2cc1OP(=O)(O)O
Ki [17]: 100 µM

CCCCC(=O)O
Ki [18]: 2000 µM

Cn1c(=O)c2c(nc(N3CCNCC3)n2Cc2ccccc2)n(C)c1=O
Ki (dipeptidyl peptidase 4): 0.638 µM

N[C@@H](Cn1oc(=O)[nH]c1=O)C(=O)O
Ki [19]: 0.4 µM | Ki [20]: 0.23 µM

CC(C)=CCC/C(C)=C/CC/C(C)=C/CC/C(C)=C/COP(=O)(O)OP(=O)(O)O
Ki [21]: 25 µM

O=P(O)(O)OC[C@@H](O)CO
Ki [22]: 610 µM

O=C(O)CCCCCCCC(=O)O
Ki [23]: 89 µM

O=c1cc[nH]c(=O)[nH]1
Ki (uracil-dna glycosylase): 0.088 µM

O=c1ccn([C@@H]2O[C@H](CO)[C@@H](O)[C@H]2O)c(=O)[nH]1
Ki (ribonuclease a): 40 µM

O=C(O)C(=O)N[C@H](Cc1ccccc1)C(=O)O
Ki [24]: 83 µM
